Experimental data: the Human Domainome abundance scans (Beltran et al. 2025)
± gives the uncertainty stated by the source.

B1: Tyrosine-protein kinase ABL1, residues 64 to 120; numbered along this chain, P00519 (parent)
chain: NLFVALYDFVASGDNTLSITKGEKLRVLGYNHNGEWCEAQTKNGQGWVPSNYITPVN

Variants of: B1
Assay: abundance fitness (aPCA) (normalised: wild type 0, dead -1); higher = more abundant; growth selection in yeast, the domain comes from the species named
Conditions: Homo sapiens

Row | Variant | abundance fitness
1 | NLFVALYDFAASGDNTLSITKGEKLRVLGYNHNGEWCEAQTKNGQGWVPSNYITPVN [V10A] | -0.029 ± 0.089
2 | NLFVALYDFCASGDNTLSITKGEKLRVLGYNHNGEWCEAQTKNGQGWVPSNYITPVN [V10C] | -0.162 ± 0.15
3 | NLFVALYDYVASGDNTLSITKGEKLRVLGYNHNGEWCEAQTKNGQGWVPSNYITPVN [F9Y] | -0.088 ± 0.32
4 | NLFVALYDTVASGDNTLSITKGEKLRVLGYNHNGEWCEAQTKNGQGWVPSNYITPVN [F9T] | -0.403 ± 0.15
5 | NLFVALYDVVASGDNTLSITKGEKLRVLGYNHNGEWCEAQTKNGQGWVPSNYITPVN [F9V] | 0.033 ± 0.078
6 | NLFVALYDWVASGDNTLSITKGEKLRVLGYNHNGEWCEAQTKNGQGWVPSNYITPVN [F9W] | -0.105 ± 0.099
7 | NLFVALYDGVASGDNTLSITKGEKLRVLGYNHNGEWCEAQTKNGQGWVPSNYITPVN [F9G] | -0.704 ± 0.095
8 | NLFVALYDLVASGDNTLSITKGEKLRVLGYNHNGEWCEAQTKNGQGWVPSNYITPVN [F9L] | -0.042 ± 0.054
9 | NLFVALYDAVASGDNTLSITKGEKLRVLGYNHNGEWCEAQTKNGQGWVPSNYITPVN [F9A] | -0.051 ± 0.083
10 | NLFVALYDKVASGDNTLSITKGEKLRVLGYNHNGEWCEAQTKNGQGWVPSNYITPVN [F9K] | -0.239 ± 0.1
11 | NLFVALYDQVASGDNTLSITKGEKLRVLGYNHNGEWCEAQTKNGQGWVPSNYITPVN [F9Q] | -0.187 ± 0.088
12 | NLFVALYDHVASGDNTLSITKGEKLRVLGYNHNGEWCEAQTKNGQGWVPSNYITPVN [F9H] | -0.467 ± 0.35
13 | NLFVALYDRVASGDNTLSITKGEKLRVLGYNHNGEWCEAQTKNGQGWVPSNYITPVN [F9R] | -0.19 ± 0.086
14 | NLFVALYDCVASGDNTLSITKGEKLRVLGYNHNGEWCEAQTKNGQGWVPSNYITPVN [F9C] | -0.015 ± 0.13
15 | NLFVALYDPVASGDNTLSITKGEKLRVLGYNHNGEWCEAQTKNGQGWVPSNYITPVN [F9P] | -0.953 ± 0.083
16 | NLFVALYDNVASGDNTLSITKGEKLRVLGYNHNGEWCEAQTKNGQGWVPSNYITPVN [F9N] | -0.444 ± 0.21
17 | NLFVALYDDVASGDNTLSITKGEKLRVLGYNHNGEWCEAQTKNGQGWVPSNYITPVN [F9D] | -0.834 ± 0.36
18 | NLFVALYDMVASGDNTLSITKGEKLRVLGYNHNGEWCEAQTKNGQGWVPSNYITPVN [F9M] | -0.242 ± 0.12
19 | NLFVALYDSVASGDNTLSITKGEKLRVLGYNHNGEWCEAQTKNGQGWVPSNYITPVN [F9S] | -0.367 ± 0.075
20 | NLFVALYDEVASGDNTLSITKGEKLRVLGYNHNGEWCEAQTKNGQGWVPSNYITPVN [F9E] | -0.796 ± 0.16
21 | NLFVALYDIVASGDNTLSITKGEKLRVLGYNHNGEWCEAQTKNGQGWVPSNYITPVN [F9I] | -0.066 ± 0.09
22 | NLFVALYEFVASGDNTLSITKGEKLRVLGYNHNGEWCEAQTKNGQGWVPSNYITPVN [D8E] | -0.175 ± 0.077
23 | NLFVALYKFVASGDNTLSITKGEKLRVLGYNHNGEWCEAQTKNGQGWVPSNYITPVN [D8K] | -0.333 ± 0.13
24 | NLFVALYWFVASGDNTLSITKGEKLRVLGYNHNGEWCEAQTKNGQGWVPSNYITPVN [D8W] | -0.843 ± 0.11

Row | Variant | abundance fitness
25 | NLFVALYLFVASGDNTLSITKGEKLRVLGYNHNGEWCEAQTKNGQGWVPSNYITPVN [D8L] | -0.956 ± 0.094
26 | NLFVALYPFVASGDNTLSITKGEKLRVLGYNHNGEWCEAQTKNGQGWVPSNYITPVN [D8P] | -0.109 ± 0.084
27 | NLFVALYMFVASGDNTLSITKGEKLRVLGYNHNGEWCEAQTKNGQGWVPSNYITPVN [D8M] | -0.883 ± 0.081
28 | NLFVALYQFVASGDNTLSITKGEKLRVLGYNHNGEWCEAQTKNGQGWVPSNYITPVN [D8Q] | -0.11 ± 0.13
29 | NLFVALYGFVASGDNTLSITKGEKLRVLGYNHNGEWCEAQTKNGQGWVPSNYITPVN [D8G] | -0.33 ± 0.065
30 | NLFVALYCFVASGDNTLSITKGEKLRVLGYNHNGEWCEAQTKNGQGWVPSNYITPVN [D8C] | -0.494 ± 0.11
31 | NLFVALYTFVASGDNTLSITKGEKLRVLGYNHNGEWCEAQTKNGQGWVPSNYITPVN [D8T] | -0.051 ± 0.095
32 | NLFVALYRFVASGDNTLSITKGEKLRVLGYNHNGEWCEAQTKNGQGWVPSNYITPVN [D8R] | -0.444 ± 0.059
33 | NLFVALYNFVASGDNTLSITKGEKLRVLGYNHNGEWCEAQTKNGQGWVPSNYITPVN [D8N] | -0.064 ± 0.074
34 | NLFVALYSFVASGDNTLSITKGEKLRVLGYNHNGEWCEAQTKNGQGWVPSNYITPVN [D8S] | -0.105 ± 0.069
35 | NLFVALYVFVASGDNTLSITKGEKLRVLGYNHNGEWCEAQTKNGQGWVPSNYITPVN [D8V] | -1.18 ± 0.17
36 | NLFVALYAFVASGDNTLSITKGEKLRVLGYNHNGEWCEAQTKNGQGWVPSNYITPVN [D8A] | -0.065 ± 0.068
37 | NLFVALGDFVASGDNTLSITKGEKLRVLGYNHNGEWCEAQTKNGQGWVPSNYITPVN [Y7G] | -0.002 ± 0.07
38 | NLFVALIDFVASGDNTLSITKGEKLRVLGYNHNGEWCEAQTKNGQGWVPSNYITPVN [Y7I] | 0.076 ± 0.16
39 | NLFVALNDFVASGDNTLSITKGEKLRVLGYNHNGEWCEAQTKNGQGWVPSNYITPVN [Y7N] | -0.006 ± 0.17
40 | NLFVALVDFVASGDNTLSITKGEKLRVLGYNHNGEWCEAQTKNGQGWVPSNYITPVN [Y7V] | -0.036 ± 0.076
41 | NLFVALTDFVASGDNTLSITKGEKLRVLGYNHNGEWCEAQTKNGQGWVPSNYITPVN [Y7T] | -0.052 ± 0.078
42 | NLFVALMDFVASGDNTLSITKGEKLRVLGYNHNGEWCEAQTKNGQGWVPSNYITPVN [Y7M] | -0.132 ± 0.11
43 | NLFVALRDFVASGDNTLSITKGEKLRVLGYNHNGEWCEAQTKNGQGWVPSNYITPVN [Y7R] | 0.199 ± 0.077
44 | NLFVALPDFVASGDNTLSITKGEKLRVLGYNHNGEWCEAQTKNGQGWVPSNYITPVN [Y7P] | -0.943 ± 0.15
45 | NLFVALQDFVASGDNTLSITKGEKLRVLGYNHNGEWCEAQTKNGQGWVPSNYITPVN [Y7Q] | 0.051 ± 0.12
46 | NLFVALHDFVASGDNTLSITKGEKLRVLGYNHNGEWCEAQTKNGQGWVPSNYITPVN [Y7H] | 0.009 ± 0.16
47 | NLFVALKDFVASGDNTLSITKGEKLRVLGYNHNGEWCEAQTKNGQGWVPSNYITPVN [Y7K] | 0.261 ± 0.11
